# Assay: Cytotoxicity against human MRC5 cells assessed as reduction in cell viability measured after 3 days by resazurin dye based fluorimetric analysis
row,SMILES,CC50 at 72 h [µM]
1,OC[C@H]1O[C@@H](n2cc(C(F)(F)F)c3c(NCc4ccccc4Cl)ncnc32)[C@H](O)[C@@H]1O,> 64
2,C[C@H](Nc1ncnc2c1c(C(F)(F)F)cn2[C@@H]1O[C@H](CO)[C@@H](O)[C@H]1O)c1ccccc1,> 64
3,OC[C@H]1O[C@@H](n2cc(C(F)(F)F)c3c(NCc4ccccc4)ncnc32)[C@H](O)[C@@H]1O,> 64
4,OC[C@H]1O[C@@H](n2cc(C(F)(F)F)c3c(NCc4ccc(Cl)cc4)ncnc32)[C@H](O)[C@@H]1O,> 64
5,C[C@@H](Nc1ncnc2c1c(C(F)(F)F)cn2[C@@H]1O[C@H](CO)[C@@H](O)[C@H]1O)c1ccccc1,41.8
6,C#Cc1cn([C@@H]2O[C@H](CO)[C@@H](O)[C@H]2O)c2ncnc(NCc3ccccc3)c12,> 64
7,OC[C@H]1O[C@@H](n2nc3c4c(ncnc42)N(Cc2ccccc2)C=C3)[C@H](O)[C@@H]1O,> 64
